Drawing on publication PMC6093302, this text covers Kd for one substance.

Protein sequences, listed by entry. Tags and fused reporters are not part of them. Residues count along the entry.
UniProt Q9NZQ7, 19-239: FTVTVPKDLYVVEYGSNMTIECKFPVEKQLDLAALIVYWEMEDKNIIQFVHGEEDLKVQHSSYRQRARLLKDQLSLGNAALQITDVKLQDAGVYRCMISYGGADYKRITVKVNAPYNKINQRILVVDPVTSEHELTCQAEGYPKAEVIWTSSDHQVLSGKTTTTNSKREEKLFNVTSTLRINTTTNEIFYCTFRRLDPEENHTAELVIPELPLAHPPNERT
UniProt Q15116, 21-170: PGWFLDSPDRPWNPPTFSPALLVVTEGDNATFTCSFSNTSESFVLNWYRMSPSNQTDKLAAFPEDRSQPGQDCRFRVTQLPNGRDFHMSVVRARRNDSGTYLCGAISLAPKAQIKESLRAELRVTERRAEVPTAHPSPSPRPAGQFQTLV

This assay concerns the target Strep-SNAP-PD-L1^EX-His10 (human) (UniProt Q9NZQ7). In words: FRET or BRET. (BRET reads energy transfer from a luciferase to a nearby fluorophore.)

For orientation: Kd means the equilibrium constant for the complex coming apart. Higher therefore signals lower affinity.

On to “Strep-SNAP-PD-1^EX-His10 (from UniProt Q15116 21-170) (domain or fragment)”, for which the Kd was found to be 18 nM.
